By UniProt entry, the sequences of proteins in these tests, tags left out. Where a name states a change or a piece, a line headed by the entry shows the natural chain unless it says otherwise.
UniProt P42338: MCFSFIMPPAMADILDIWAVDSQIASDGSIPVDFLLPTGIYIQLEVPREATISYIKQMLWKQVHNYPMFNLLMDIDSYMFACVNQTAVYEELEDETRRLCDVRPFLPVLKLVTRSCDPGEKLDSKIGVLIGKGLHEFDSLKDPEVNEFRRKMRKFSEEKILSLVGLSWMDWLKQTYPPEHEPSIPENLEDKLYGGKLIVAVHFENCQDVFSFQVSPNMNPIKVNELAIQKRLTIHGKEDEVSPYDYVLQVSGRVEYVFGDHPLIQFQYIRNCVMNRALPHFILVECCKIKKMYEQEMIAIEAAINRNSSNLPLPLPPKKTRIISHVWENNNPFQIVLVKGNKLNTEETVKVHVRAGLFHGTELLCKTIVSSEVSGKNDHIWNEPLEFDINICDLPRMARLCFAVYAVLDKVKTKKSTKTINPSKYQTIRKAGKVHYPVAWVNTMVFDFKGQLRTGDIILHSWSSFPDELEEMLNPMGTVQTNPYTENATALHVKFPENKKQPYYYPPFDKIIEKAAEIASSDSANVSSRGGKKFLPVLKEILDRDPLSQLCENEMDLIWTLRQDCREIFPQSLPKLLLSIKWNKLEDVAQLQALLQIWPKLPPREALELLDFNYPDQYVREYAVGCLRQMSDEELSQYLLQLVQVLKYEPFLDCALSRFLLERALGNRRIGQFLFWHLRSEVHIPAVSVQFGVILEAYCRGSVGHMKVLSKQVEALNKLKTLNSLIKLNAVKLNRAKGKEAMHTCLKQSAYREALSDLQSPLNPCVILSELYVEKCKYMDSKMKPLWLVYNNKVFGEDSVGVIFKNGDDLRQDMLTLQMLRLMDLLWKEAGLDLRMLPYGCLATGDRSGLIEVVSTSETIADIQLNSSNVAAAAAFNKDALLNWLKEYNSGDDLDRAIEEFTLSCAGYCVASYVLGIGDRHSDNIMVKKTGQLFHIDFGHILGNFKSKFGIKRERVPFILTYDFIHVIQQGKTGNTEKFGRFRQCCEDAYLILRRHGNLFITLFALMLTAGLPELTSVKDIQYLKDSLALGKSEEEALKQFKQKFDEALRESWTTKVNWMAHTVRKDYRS

According to the Kinase Knowledgebase extract (Sharma et al. 2016):

Molecular target: PIK3CB (Human) (UniProt P42338)
Details: platelet

Question: `Cc1cc(C(C)Nc2ccccc2)c2nc(N3CCOCC3)cc(=O)n2c1` (stereo unspecified) was tested. Which IC50 did it give?
Answer: 50 to 100 nM
